Legend:
[1] = system: plaque as well as non-plaque regions of the aorta; assay: Quantitative autoradiography and Sudan-III-dyeing of the removed aorta of WHHL-rabbits after i.v. application; type: in vivo; conditions: WHHL-rabbit; for Enrichment (cpm/mm^2) Non-plaque / Enrichment (cpm/mm^2) Plaque: 74 MBq (2 mCi) via ear vein, quantitative autoradiography of aorta; for Enrichment (cpm/mm^2) Non-plaque / Enrichment (cpm/mm^2) Plaque / Enrichment factor Plaque / Non-plaque: 5 h p.i.; for Enrichment (cpm/mm^2) Non-plaque: non-plaque region; for Enrichment (cpm/mm^2) Plaque: plaque region; for Enrichment factor Plaque / Non-plaque: ratio of enrichment in plaque and in non-plaque aorta tissue
Protocol: 74 MBq (2 mCi) of the respective compound according to the invention was applied via an ear vein in a WHHL-rabbit. 5 h p.i. the rabbit was killed and both a quantitative autoradiography and a Sudan-III-dyeing of the removed aorta were performed. The so-determined accumulation of the respective compounds according to the invention in the different tissues is listed in Table 1.
2 mCi (1 ml) of the analog to b) labelled Asp-Gly-Gly-Cys-Gly-Cys-His-Leu-Asp-Ile-Ile-Trp was applied to a narcotized WHHL-rabbit (Rompun/Ketavet 1:2) via an ear vein. WHHL-rabbits reveal due a missing or defect LDL receptor high LDL levels in blood and therefore show spontaneous arteriosclerotic vascular changes. During the experimental time span of 5 h after application, static photographs with various exposure times and positions were taken with a gamma camera (Elcint SP4 HR). 5 h after application the rabbit was killed and both an autoradiography and a Sudan III dyeing of the aorta were performed. The arteriosclerotic plagues in the region of the aortic arch of the WHHL-rabbits could be depicted with 10 min p.i. in vivo. […] The enrichment factor between the normal and arteriosclerotic wall regions was between 6 and 9, depending on the plaque formation (Sudan III dyeing).

[2] = system: denuded (arteriosclerotic) right a. carotis; assay: Scintigram and autoradiogram of a New Zealand rabbit with right a. carotis denuded by Fogarty-catheter; conditions: tissues dissected 5 h after i.v. application
From the text: The order of the dissected tissues for each B1 and B2 from left to right: thoracic aorta, right denuded a. carotis and left untreated a. carotis.

| Substance | Enrichment (cpm/mm^2) Non-plaque [1] [cpm/mm^2] | Enrichment (cpm/mm^2) Plaque [1] [cpm/mm^2] | Enrichment factor Plaque / Non-plaque [1] | accumulation in denuded right a. carotis in comparison to untreated left a. carotis (autoradiogram, Sudan-III-dyeing) [2] | accumulation in denuded right a. carotis in comparison to untreated left a. carotis (autoradiogram, Sudan-III-dyeing) ([2]; listed as Tc-99m-Asp-Gly-Gly-Cys-Gly-Cys-(D-Trp)-Leu-Asp-Ile-Ile-Trp) | autoradiography labelling of the aorta ([1]; 2 mCi i.v., 5 h after application) |
| --- | --- | --- | --- | --- | --- | --- |
| Tc-99m-Complex of Asp-Gly-Gly-Cys-Gly-Cys-Phe-(D-Trp)-Leu-Asp-Ile-Ile-Trp [Example 3 c] | 368 | 3930 | 11 | – | – | – |
| Tc-99m-Complex of N-(mercaptoacetyl)-Gly-Gly-Asp-(D-Trp)-Leu-Asp-Ile-Ile-Trp [Example 8 c] | 52 | 513 | 10 | – | – | – |
| Tc-99m-Complex of N-(mercaptoacetyl)-Gly-Gly-Asp-Phe-(D-Trp)-Leu-Asp-Ile-Ile-Trp [Example 7 c] | 48 | 619 | 13 | – | – | – |
| ^99mTc-Complex of Asp-Gly-Gly-Cys-Gly-Cys-D-Trp-Leu-Asp-Ile-Ile-Trp [Example 2 c] | 431 | 3090 | 7 | higher and more selective accumulation | high and selective accumulation | – |
| ^99mTc-Complex of Asp-Gly-Gly-Cys-Gly-Cys-His-Leu-Asp-Ile-Ile-Trp [Example 1 c] | 89 | 501 | 6 | – | – | labelling of the entire aorta wall as well as the arteriosclerotic plaque |
